Values of other authors, collected in PMC7004556 (Cancer Science, 2020).

Tested on: advanced solid tumors
Settings: Japanese patients with advanced solid tumors; cited from earlier work

AZD4547
Tolerability: well tolerated
